These are literature values, as cited in patent US7964359B2, “Compositions and methods for the enhancement of soluble amyloid beta oligomer (ADDL) uptake and clearance” (Acumen Pharmaceuticals, Inc., priority 2006, dated 2011).

The chains behind the UniProt entries cited, without tags or fusion partners.
UniProt P37231, whole entry, species assumed: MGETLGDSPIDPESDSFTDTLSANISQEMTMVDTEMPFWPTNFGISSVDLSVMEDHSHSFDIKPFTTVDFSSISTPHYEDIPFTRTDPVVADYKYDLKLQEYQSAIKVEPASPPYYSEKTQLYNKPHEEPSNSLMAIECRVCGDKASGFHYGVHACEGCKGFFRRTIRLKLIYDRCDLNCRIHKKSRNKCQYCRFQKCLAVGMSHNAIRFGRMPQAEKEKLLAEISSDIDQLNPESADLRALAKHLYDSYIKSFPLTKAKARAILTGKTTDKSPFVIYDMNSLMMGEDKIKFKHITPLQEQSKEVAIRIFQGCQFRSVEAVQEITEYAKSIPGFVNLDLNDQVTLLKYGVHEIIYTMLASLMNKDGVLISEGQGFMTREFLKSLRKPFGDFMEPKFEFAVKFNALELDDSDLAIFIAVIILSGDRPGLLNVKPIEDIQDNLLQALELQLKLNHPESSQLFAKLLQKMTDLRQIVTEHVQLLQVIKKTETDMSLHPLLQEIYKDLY

The series concerns the target PPARγ (Homo sapiens, UniProt P37231). Particulars: cell types transfected with PPARγ; cited from earlier work.

Regarding rosiglitizone, the “clearance of exogenously added Aβ from the media” value was “activate rapid and efficient clearance of exogenously added Aβ from the media”.
